“Also recorded” adds a separate entry of the source.
Experiments:
[1] = system: MRSA; type: cell-based, Staphylococcus aureus
Experimental: Minimum inhibitory concentration (MIC) and minimum bactericidal concentration (MBC) antimicrobial assays were performed. For MIC assessment, the antimicrobial peptide, Epi-1, was diluted to final concentrations of […], or 0.78 μg/ml. Twenty microliters of each dilution were mixed in a microtiter plate well with […] of the appropriate bacterial indicator suspension, and 160 μl of Trypticase Soy Broth (TSB) for S. aureus, to a total volume of 200 μl. Three replicates were examined for each S. aureus strain, compound, and concentration. Positive controls contained water instead of compounds, and negative controls contained compounds without bacterial suspensions. Microbial growth was automatically determined by optical density measurement at 600 nm (Bioscreen C, Labsystem, Helsinki, Finland). Microplates were incubated at 25° C. for plant pathogens and at 37° C. for food-borne bacterial strains. Absorbance readings were taken at hourly intervals over a 48 h period. Plates were shaken for 20 seconds before each measurement. The experiment was repeated twice.

[2] = system: MRSA; experiment: MRSA-infected full-thickness skin excision wound in mice: survival, wound closure, angiogenesis; type: in vivo, Balb/C mice
Experimental: Six to eight week old Balb/C male mice were used for the examples. MRSA culture and quantification were carried out, and suspensions were serially diluted and spread onto LB-agar plates in duplicate for 24 hours. After the incubation period, colony forming units (CFU) were counted, averaged, and expressed as CFU/ml. All animal handing procedures were in accordance with National Taiwan Ocean University (NTOU) guidelines. All procedures were approved by the Animal Care and Use Committee of NTOU.
(§1) The mice were housed individually to prevent fighting and further damage to the wounds, and were given ad libitum access to food and water. The mice were maintained under 12 h/12 h light/dark cycle at a room temperature, and adapted to the environment for at least a week before used in the experiments. Each mouse's hair was removed from the back by shaving, and a full-thickness excisional wound (1 cm in diameter) was created on the back of the mice.
Each wound was inoculated with 50 μl of broth mix containing 10^6 CFU of the indicated microorganism. […] At the end of the examination period, the animals were euthanized by CO2 inhalation and the wounds were assessed. […] Each wound was measured and then removed from the animal, with unwounded skin taken from the contralateral abdomen as a control.
(§2) Tracings were taken immediately after injury. For uncontaminated wounds, wound size was determined every second day. […] Wound areas were determined using the Macintosh Adobe Photoshop program and histological examination. The percentage of wound contraction was calculated as follows: % Wound contraction=(A0−At)/A0×100% […]
Multidrug-resistant strains of Staphylococcus aureus (MRSA) commonly associated with human wound infections were selected to generate a polymicrobial solution. […] Microbial load was determined by direct plating, followed by freeze-thaw and cfu enumeration, in parallel with inoculations. […] The cfu/g of tissue was calculated as follows: cfu/g=plate count (1/dilution)×10/wt. of homogenized tissue. […]

[3] = system: MRSA; experiment: Assessment of wound infection: bacterial load (CFU) and Gram staining of wound tissue; type: in vivo, Balb/C mice
Experimental: Tissue samples were homogenized in PBS. Serially diluted aliquots of homogenate were cultured on Luria-Bertani agar after incubation for 18 h at 37° C., and cfu/g tissue were subsequently calculated. A stable wound infection was defined as 10^6 cfu/g tissue.
(§3) Full-thickness tissue was harvested for microbial and histological analysis. Samples from each experiment were fixed in 4% buffered paraformaldehyde. Tissue samples were stained with hematoxylin/eosin or Giemsa, and immunohistochemistry (IHC) was analyzed by three independent investigators. Images were taken with a BX-51 microscope (Olympus, Japan).
Multidrug-resistant strains of Staphylococcus aureus (MRSA) commonly associated with human wound infections were selected to generate a polymicrobial solution. The initial inoculum was prepared by culturing aerobic bacteria in Tryptic Soy Broth (TSB) overnight at 37° C. Broths were subsequently centrifuged at 1000 rpm for 15 min, and resuspended in TSB with 15% glycerol, or chopped meat extract with 15% glycerol (for aerobic bacteria). […] Prior to wound application, the bacterial stocks were re-mixed. Microbial load was determined by direct plating, followed by freeze-thaw and cfu enumeration, in parallel with inoculations. […] The cfu/g of tissue was calculated as follows: cfu/g=plate count (1/dilution)×10/wt. of homogenized tissue.

[4] = system: MCP-1, IL-6, TNF; experiment: Serum cytokine/chemokine ELISA in MRSA-infected wounded mice; type: in vivo, Balb/C mice; conditions: Day 3 after treatment, compared to positive controls
Text: (§4) Elisa kits for […] (Cat no. 555260, BD Biosciences, CA, USA), IL-6 (Cat no. 555240, BD Biosciences, CA, USA), and TNF (Cat no. 558534, BD Biosciences, CA, USA) were used to determine cytokine levels. Antibodies against macrophages (Cat no. 550282, BD Biosciences, CA, USA), monocytes (Cat no. 101301, BioLegend, London, UK), and VEGF (Cat no. 550549, BD Biosciences, CA, USA) were used for immunohistochemistry (IHC). Fish scale collagen peptides (FSCPs) were isolated from tilapia (Oreochromis sp.) by the Seafood Technology Division, Fisheries Research Institute, Council of Agriculture, Taiwan.
Each wound was inoculated with 50 μl of broth mix containing 10^6 CFU of the indicated microorganism. The wounds were treated with the antimicrobial peptide according to the invention and collagen at 5 min after inoculation. At 30 min after treatment, wounds were covered with Tegaderm to maintain uniformity and to prevent the loss of the materials as treated. The wounds were examined at Day 3, 7, and 14 after the wounds were created, and the non-contaminated wounds were examined every other day. The wounds were examined to assess the transitions from inflammatory to regenerative and regenerative to resolving phases of the wound healing. At the end of the examination period, the animals were euthanized by CO2 inhalation and the wounds were assessed. For each experiment, four individuals were examined in each group at each time point. Each wound was measured and then removed from the animal, with unwounded skin taken from the contralateral abdomen as a control.

[5] = system: monocytes, macrophages, VEGF; experiment: Histology (H&E, Giemsa) and immunohistochemistry of wound tissue; type: in vivo, Balb/C mice
Text: as §4, §3

[6] = Closure of uncontaminated (aseptic) full-thickness wounds in mice; type: in vivo, Balb/C mice
Experimental: as §1
Each wound was inoculated with 50 μl of broth mix containing 10^6 CFU of the indicated microorganism. The wounds were treated with the antimicrobial peptide according to the invention and collagen at 5 min after inoculation. At 30 min after treatment, wounds were covered with Tegaderm to maintain uniformity and to prevent the loss of the materials as treated. […] At the end of the examination period, the animals were euthanized by CO2 inhalation and the wounds were assessed. […] Each wound was measured and then removed from the animal, with unwounded skin taken from the contralateral abdomen as a control.
as §2

Compound: CC[C@H](C)[C@H](NC(=O)[C@H](CCCCN)NC(=O)[C@@H]1CCCN1C(=O)[C@@H](NC(=O)[C@H](CC(C)C)NC(=O)[C@H](C)NC(=O)[C@H](Cc1ccccc1)NC(=O)[C@H](Cc1ccccc1)NC(=O)CN)[C@@H](C)CC)C(=O)N[C@H](C(=O)N[C@@H](CO)C(=O)N[C@@H](CO)C(=O)N1CCC[C@H]1C(=O)N[C@@H](CC(C)C)C(=O)N[C@@H](Cc1ccccc1)C(=O)N[C@@H](CCCCN)C(=O)N[C@H](C(=O)N[C@@H](CC(C)C)C(=O)N[C@@H](CC(C)C)C(=O)N[C@@H](CO)C(=O)N[C@@H](C)C(=O)N[C@H](C(=O)NCC(=O)N[C@@H](CO)C(=O)N[C@@H](C)C(=O)N[C@@H](CC(C)C)C(=O)N[C@@H](CO)C(=O)N[C@@H](CO)C(=O)N[C@@H](CO)C(=O)NCC(=O)NCC(=O)N[C@@H](CCC(N)=O)C(=O)N[C@@H](CCC(=O)O)C(=O)O)C(C)C)[C@@H](C)O)[C@@H](C)CC [GE33, Pardaxin]
- concentration that effectively killed MRSA ([1]; MRSA suspended in 10 mM sodium phosphate buffer, pH 7.2): > 6.25 mg/L
- minimal inhibitory concentration (MIC) ([1]; against MRSA): > 6.25 µg/mL
- antibacterial efficacy against MRSA in vitro ([1]; bacterial proliferation by optical density at 600 nm): anti-bacterial activity against MRSA in vitro
- initial expansion of wound size ([2]; contaminated full thickness wounds): did not exhibit the initial expansion
- wound closure time ([2]; contaminated wounds, GE33 study (FIG. 8B)): accelerated
- wound size by 14 days ([2]; contaminated wounds, P<0.05): smaller than that of the vancomycin-treated group
- Gram staining of MRSA / Gram-positive microorganisms in wound sections ([3]; Day 3 after inoculation): reduced
- colony counts between Days 7 and 17 ([3]; MRSA-contaminated wounds): decreased; also recorded: most rapid decrease
- induction of IL-6 in serum [4]: decreased induction
- induction of MCP-1 in serum [4]: decreased induction
- induction of TNF in serum [4]: decreased induction
- overall epidermal maturation, keratinization and regeneration of the epithelium ([5]; histology of wounds): no signs of irregularity
- IHC staining of VEGF ([5]; infected wound, Day 3): increased
- IHC staining/infiltration of macrophages ([5]; infected wound, Day 3): significant increase
- IHC staining/infiltration of monocytes ([5]; infected wound, Day 3): significant increase
- wound healing (FIG. 8A) [6]: promoted the wound healing
